The values that follow are results of earlier work, collected in US6960597B2, “Aza-bridged-bicyclic amino acid derivatives as α4 integrin antagonists” (Orth-McNeil Pharmaceutical, Inc., priority 2000, dated 2005).

The structures appear in SMILES notation.

In series [1] the test system is airway responses following antigen challenge. To be noted: allergic sheep; pre-treatment, 3 mg nebulized dose; cited from earlier work.
Series [2] deals with eosinophilia and airway hyperresponsiveness. To be noted: animal models of asthma; cited from earlier work.

`Cc1ccccc1NC(=O)Nc1ccc(CC(=O)N[C@@H](CC(C)C)C(=O)N[C@@H](CC(=O)O)C(=O)N[C@H](C(=O)N2CCC[C@H]2C(=O)O)C(C)C)cc1`: in series [1], the “development of nonspecific airway hyperresponsiveness to carbachol” value is listed as “prevented”; the “early and late airway responses following antigen challenge” value is “inhibited”. For the same molecule, in series [2], the “eosinophilia and airway hyperresponsiveness” value is “inhibits”.
